Source: paper PMC3388080 (PLoS ONE, 2012)

Chains of the proteins cited; added tags and fusions are not shown.
UniProt P56718, whole entry: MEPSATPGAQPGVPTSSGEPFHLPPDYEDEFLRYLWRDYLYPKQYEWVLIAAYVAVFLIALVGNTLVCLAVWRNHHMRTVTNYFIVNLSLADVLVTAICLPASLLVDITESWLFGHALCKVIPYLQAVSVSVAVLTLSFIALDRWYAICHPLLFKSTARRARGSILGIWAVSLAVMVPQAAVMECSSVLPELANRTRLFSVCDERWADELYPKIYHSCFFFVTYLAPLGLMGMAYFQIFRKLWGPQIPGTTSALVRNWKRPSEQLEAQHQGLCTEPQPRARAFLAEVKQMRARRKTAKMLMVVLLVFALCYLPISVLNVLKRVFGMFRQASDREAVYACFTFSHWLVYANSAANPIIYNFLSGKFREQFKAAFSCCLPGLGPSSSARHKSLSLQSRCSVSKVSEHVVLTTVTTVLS
UniProt P56719, whole entry: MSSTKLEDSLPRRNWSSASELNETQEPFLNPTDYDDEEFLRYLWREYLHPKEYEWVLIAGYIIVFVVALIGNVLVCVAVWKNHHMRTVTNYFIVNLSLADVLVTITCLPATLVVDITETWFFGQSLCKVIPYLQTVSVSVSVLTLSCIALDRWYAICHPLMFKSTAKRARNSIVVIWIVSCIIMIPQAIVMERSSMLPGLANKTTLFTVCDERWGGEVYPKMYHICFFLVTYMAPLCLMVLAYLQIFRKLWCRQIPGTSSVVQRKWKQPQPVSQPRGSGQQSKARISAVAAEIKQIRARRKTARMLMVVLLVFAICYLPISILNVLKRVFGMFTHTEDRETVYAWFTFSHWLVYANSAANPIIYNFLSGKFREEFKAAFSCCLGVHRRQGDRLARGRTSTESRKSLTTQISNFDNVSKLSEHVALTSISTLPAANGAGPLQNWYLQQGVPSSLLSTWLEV

Columns and labels:
rHCRTR1 [1] = molecular target: T1, rHCRTR1 (Rattus norvegicus, UniProt P56718); test: Inhibition of [^3H]almorexant binding to HEK293-rHCRTR1 membranes; details: [^3H]almorexant 3.4 nM, 23°C
T1 construct: expressed in transfected cells; host or cells: HEK293 (transient transfection, pCI-Neo vector), membrane preparation
Excerpt: The rat cDNAs encoding HCRTR1 (Accession No. P56718) and HCRTR2 (Accession No. P56719) were subcloned into pCI-Neo expression vectors (Promega, Madison, WI) and used to transfect HEK293 cells (acquired commercially from ATCC-LGC, Molsheim, France) as previously described.

rHCRTR2 = molecular target: T2, rHCRTR2 (Rattus norvegicus, UniProt P56719); test: Inhibition of [^3H]almorexant binding to HEK293-rHCRTR2 membranes; details: [^3H]almorexant 0.5 nM, 37°C
T2 construct: expressed in transfected cells; host or cells: HEK293 (transient transfection, pCI-Neo vector), membrane preparation
Excerpt: [^3H]almorexant binding to rat HCRTR1 and HCRTR2. The rat cDNAs encoding HCRTR1 (Accession No. P56718) and HCRTR2 (Accession No. P56719) were subcloned into pCI-Neo expression vectors (Promega, Madison, WI) and used to transfect HEK293 cells (acquired commercially from ATCC-LGC, Molsheim, France) as previously described. Membrane preparations, saturation and inhibition experiments, and determination of the association and dissociation kinetic parameters of [^3H]almorexant to rHCRTR2-HEK293 cell membranes were performed at F. Hoffmann-La Roche as previously described and reported in the Materials and Methods S1.
The potencies of almorexant and of the selective HCRTR1 antagonists SB-334867 [6] and SB-408124 [34] in inhibiting [^3H]almorexant binding to HEK293-rHCRTR1 and HEK293-rHCRTR2 cell membranes are given in Table 2. Almorexant was able to displace [^3H]almorexant binding from rHCRTR1 and rHCRTR2 membranes with high affinity (Table 2). In contrast, SB-334867 and SB-408124 displaced [^3H]almorexant binding from rHCRTR1, but not from rHCRTR2, with high affinity (Table 2).

rHCRTR1 [2] = molecular target: T1, rHCRTR1; design: method as in PMID 14691055; details: cited from earlier work

For `Cc1nc2ccc(NC(=O)Nc3ccnc4cccnc34)cc2o1.Cl` [SB-334867, 1-(2-methylbenzoxazol-6-yl)-3-[1], [5]naphthyridin-4-yl-urea hydrochloride], the Ki (rHCRTR1 [1]) is listed as 58.4 ± 2.9 nM, the Ki (rHCRTR2) is listed as 2390 ± 81 nM and the Ki (rHCRTR1 [2]) is listed as 38.7 nM.

Like-named read-outs stand apart in the source and are kept apart here.
